Measurements from publication PMC10150492.

Sequences of proteins named here, by UniProt entry; tags and fusion partners are left off.
UniProt Q9Y3Z3, whole entry T592S: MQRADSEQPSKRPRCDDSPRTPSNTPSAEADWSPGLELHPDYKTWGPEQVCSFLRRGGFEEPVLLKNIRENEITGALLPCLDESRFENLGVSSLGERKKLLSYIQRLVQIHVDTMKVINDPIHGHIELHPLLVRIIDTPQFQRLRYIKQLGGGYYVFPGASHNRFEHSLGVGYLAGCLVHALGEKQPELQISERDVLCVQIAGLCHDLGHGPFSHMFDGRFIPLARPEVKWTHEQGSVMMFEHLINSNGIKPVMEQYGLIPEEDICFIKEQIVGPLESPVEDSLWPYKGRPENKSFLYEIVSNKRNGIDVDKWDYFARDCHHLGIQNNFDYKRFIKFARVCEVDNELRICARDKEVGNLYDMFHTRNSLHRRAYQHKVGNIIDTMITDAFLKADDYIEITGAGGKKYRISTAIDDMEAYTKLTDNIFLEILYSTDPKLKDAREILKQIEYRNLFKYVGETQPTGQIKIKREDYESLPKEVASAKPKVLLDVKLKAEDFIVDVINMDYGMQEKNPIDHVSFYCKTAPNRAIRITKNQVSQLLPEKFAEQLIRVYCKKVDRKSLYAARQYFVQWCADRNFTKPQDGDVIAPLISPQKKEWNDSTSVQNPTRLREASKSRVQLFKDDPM
UniProt Q9Y3Z3, whole entry T592I: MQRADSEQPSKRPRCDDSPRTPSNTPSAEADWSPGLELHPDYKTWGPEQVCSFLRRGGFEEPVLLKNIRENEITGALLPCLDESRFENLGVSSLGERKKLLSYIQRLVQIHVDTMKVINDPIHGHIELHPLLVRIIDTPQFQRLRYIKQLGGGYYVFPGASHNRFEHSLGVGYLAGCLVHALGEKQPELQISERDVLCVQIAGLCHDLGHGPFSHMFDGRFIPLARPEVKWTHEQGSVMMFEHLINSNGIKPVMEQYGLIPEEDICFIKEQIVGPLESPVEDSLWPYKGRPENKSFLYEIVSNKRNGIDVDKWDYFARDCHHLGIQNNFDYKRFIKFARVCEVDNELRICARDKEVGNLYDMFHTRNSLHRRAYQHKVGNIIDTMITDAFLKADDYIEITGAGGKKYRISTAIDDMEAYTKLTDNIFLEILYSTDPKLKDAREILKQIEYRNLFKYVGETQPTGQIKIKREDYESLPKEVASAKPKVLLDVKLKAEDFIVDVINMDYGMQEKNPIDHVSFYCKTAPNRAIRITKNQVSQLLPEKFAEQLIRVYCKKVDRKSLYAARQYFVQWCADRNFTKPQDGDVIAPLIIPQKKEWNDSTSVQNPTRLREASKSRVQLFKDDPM
UniProt Q9Y3Z3, whole entry T592K: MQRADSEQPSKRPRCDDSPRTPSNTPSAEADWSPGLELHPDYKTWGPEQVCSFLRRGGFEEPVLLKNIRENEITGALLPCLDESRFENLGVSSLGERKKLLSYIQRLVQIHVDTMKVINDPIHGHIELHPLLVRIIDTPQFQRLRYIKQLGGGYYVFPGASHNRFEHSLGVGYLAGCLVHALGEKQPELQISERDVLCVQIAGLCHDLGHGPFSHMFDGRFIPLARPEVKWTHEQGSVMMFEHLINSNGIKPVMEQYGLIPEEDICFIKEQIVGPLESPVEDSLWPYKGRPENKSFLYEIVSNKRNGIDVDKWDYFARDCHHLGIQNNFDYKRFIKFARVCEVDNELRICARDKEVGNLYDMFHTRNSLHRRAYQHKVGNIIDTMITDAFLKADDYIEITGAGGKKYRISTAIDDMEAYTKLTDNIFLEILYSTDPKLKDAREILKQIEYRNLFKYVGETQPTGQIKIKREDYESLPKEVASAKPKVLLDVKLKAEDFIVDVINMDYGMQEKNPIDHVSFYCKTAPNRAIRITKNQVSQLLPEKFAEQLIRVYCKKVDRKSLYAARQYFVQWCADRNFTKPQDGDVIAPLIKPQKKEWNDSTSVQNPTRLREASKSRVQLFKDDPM
UniProt Q9Y3Z3, whole entry T592E: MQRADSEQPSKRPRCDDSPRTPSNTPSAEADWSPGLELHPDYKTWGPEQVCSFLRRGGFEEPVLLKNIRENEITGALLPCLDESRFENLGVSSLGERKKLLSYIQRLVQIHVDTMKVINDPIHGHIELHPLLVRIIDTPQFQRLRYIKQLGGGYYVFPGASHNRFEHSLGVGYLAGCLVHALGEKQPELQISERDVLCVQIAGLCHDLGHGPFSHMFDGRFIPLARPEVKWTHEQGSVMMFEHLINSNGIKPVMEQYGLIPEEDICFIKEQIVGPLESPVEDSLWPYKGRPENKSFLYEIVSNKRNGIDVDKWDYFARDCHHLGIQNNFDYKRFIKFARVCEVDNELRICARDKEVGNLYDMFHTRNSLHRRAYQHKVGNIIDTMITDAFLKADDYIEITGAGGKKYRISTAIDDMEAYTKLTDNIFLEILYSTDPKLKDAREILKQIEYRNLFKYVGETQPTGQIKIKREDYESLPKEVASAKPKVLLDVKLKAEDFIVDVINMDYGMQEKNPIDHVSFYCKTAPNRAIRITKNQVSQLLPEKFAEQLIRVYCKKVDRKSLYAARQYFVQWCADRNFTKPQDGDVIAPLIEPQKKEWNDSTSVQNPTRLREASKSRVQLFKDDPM
UniProt Q9Y3Z3, whole entry T592L: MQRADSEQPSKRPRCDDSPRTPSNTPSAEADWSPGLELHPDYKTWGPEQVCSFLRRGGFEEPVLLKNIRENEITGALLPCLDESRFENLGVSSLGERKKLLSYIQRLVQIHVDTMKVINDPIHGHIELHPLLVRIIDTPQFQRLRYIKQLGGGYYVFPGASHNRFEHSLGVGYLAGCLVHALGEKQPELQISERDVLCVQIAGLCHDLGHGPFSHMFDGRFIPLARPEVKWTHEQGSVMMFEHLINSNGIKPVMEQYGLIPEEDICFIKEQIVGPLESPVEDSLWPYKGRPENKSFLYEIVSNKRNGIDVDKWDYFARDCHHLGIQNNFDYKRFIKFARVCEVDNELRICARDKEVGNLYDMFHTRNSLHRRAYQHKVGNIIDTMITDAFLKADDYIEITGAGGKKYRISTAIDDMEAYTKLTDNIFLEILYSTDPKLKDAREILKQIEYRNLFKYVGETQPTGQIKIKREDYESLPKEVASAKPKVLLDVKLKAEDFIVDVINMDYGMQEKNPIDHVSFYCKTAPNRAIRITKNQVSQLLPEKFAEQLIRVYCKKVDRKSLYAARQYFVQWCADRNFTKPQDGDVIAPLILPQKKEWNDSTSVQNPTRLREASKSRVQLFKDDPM
UniProt Q9Y3Z3, whole entry T592A: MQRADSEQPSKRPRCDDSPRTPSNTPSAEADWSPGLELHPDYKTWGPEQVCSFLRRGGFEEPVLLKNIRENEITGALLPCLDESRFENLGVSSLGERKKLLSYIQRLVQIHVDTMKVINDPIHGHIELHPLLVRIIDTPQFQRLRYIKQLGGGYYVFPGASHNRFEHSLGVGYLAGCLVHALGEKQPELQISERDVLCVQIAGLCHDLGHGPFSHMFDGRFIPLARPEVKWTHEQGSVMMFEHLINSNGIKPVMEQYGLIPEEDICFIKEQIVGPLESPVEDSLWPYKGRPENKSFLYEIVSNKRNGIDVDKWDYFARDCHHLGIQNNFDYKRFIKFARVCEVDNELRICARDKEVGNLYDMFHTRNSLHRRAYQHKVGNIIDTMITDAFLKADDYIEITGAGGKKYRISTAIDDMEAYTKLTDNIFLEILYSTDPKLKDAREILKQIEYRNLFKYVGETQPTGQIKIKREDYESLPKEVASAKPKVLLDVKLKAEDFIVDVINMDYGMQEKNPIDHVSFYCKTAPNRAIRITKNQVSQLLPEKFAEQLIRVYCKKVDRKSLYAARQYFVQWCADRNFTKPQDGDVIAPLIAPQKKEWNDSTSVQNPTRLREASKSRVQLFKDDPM
UniProt Q9Y3Z3, whole entry T592D: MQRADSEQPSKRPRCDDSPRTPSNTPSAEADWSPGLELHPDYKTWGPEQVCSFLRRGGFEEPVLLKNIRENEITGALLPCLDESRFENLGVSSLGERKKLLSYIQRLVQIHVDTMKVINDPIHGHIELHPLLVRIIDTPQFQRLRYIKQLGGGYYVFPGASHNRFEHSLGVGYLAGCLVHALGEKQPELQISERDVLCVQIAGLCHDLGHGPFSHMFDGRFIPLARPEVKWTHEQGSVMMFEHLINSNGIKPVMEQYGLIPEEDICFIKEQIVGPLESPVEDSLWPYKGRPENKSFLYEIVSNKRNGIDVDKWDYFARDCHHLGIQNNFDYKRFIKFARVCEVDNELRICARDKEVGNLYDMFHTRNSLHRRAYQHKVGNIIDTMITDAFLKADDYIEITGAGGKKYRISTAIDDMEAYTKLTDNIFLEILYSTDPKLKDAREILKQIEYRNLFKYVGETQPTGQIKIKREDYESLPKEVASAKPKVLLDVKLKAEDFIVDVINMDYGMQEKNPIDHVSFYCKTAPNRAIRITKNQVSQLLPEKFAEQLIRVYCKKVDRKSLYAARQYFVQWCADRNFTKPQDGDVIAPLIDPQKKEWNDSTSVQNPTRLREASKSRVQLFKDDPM
UniProt Q9Y3Z3, whole entry T592C: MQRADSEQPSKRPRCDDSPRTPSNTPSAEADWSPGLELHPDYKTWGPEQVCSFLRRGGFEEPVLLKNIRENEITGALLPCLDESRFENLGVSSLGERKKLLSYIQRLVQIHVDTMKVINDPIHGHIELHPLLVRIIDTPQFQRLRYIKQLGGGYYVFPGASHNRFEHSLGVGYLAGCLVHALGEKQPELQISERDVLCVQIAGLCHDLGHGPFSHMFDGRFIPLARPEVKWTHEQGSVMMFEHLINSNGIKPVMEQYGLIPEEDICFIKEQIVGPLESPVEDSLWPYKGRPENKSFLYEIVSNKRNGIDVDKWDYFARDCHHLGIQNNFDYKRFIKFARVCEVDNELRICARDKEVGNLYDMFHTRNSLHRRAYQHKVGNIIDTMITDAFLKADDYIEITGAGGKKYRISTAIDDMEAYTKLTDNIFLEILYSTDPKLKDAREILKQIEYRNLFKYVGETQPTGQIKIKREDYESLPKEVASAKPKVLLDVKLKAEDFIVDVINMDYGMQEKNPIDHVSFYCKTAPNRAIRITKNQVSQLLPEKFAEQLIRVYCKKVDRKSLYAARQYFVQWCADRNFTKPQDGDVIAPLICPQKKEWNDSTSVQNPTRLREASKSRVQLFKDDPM
UniProt Q9Y3Z3, whole entry T592V: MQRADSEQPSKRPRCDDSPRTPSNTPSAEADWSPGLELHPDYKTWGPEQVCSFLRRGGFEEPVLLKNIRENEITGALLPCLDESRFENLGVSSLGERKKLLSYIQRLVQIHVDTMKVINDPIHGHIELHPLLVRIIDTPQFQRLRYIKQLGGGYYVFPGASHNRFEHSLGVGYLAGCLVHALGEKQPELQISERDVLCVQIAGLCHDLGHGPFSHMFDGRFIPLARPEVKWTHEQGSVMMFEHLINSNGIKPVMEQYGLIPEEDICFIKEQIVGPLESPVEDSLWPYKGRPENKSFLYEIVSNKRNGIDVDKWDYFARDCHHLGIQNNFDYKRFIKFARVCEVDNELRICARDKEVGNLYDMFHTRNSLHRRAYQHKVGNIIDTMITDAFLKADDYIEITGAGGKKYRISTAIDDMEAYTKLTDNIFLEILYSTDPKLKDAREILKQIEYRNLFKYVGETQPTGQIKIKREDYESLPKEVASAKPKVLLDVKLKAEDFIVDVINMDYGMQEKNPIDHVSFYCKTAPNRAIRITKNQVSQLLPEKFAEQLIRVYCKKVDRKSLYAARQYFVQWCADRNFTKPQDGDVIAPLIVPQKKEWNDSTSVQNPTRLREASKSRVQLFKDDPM

Biological target: SAMHD1 1-626 (UniProt Q9Y3Z3)
Assay: SEC-MALLS tetramer stability time course
Settings: reference: wild type; sites T592

| Substance | other: tetramer decay rate kdec |
| --- | --- |
| SAMHD1 1-626 (from UniProt Q9Y3Z3) T592S | stronger; reference 7.02 |
| SAMHD1 1-626 (from UniProt Q9Y3Z3) T592I | stronger; reference 7.02 |
| SAMHD1 1-626 (from UniProt Q9Y3Z3) T592K | weaker; reference 7.02 |
| SAMHD1 1-626 (from UniProt Q9Y3Z3) T592E | same; reference 7.02 |
| SAMHD1 1-626 (from UniProt Q9Y3Z3) T592L | weaker; reference 7.02 |
| SAMHD1 1-626 (from UniProt Q9Y3Z3) T592A | stronger; reference 7.02 |
| SAMHD1 1-626 (from UniProt Q9Y3Z3) T592D | weaker; reference 7.02 |
| SAMHD1 1-626 (from UniProt Q9Y3Z3) T592C | stronger; reference 7.02 |
| SAMHD1 1-626 (from UniProt Q9Y3Z3) T592V | stronger; reference 7.02 |
